Columns and labels:
Assay type in all cases: cell-based
NOX5 = molecular target: T1, NOX5 (Homo sapiens, UniProt Q96PH1); test: PMA-induced superoxide anion luminescence assay, UACC-257 cells
T1 sequence (Q96PH1 1-765): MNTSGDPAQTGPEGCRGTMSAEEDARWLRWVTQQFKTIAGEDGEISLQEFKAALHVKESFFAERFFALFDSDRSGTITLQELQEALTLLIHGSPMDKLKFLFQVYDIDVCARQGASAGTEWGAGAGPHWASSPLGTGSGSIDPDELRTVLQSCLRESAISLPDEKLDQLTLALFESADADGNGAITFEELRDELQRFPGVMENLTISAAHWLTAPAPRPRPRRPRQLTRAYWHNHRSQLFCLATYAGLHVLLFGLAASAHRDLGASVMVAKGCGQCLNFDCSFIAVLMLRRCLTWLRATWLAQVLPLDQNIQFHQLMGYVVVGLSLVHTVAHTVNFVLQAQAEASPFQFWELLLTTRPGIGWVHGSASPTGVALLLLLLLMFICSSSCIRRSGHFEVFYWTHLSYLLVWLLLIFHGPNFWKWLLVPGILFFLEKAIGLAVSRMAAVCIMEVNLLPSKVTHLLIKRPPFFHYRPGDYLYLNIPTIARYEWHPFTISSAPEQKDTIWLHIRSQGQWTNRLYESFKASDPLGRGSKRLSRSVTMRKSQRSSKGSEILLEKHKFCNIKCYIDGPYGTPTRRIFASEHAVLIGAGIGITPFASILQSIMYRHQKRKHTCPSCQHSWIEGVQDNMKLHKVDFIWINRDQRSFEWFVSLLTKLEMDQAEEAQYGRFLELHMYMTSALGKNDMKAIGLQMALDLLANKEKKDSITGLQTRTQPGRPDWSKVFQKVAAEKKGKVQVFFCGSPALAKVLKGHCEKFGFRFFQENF

NOX2 [1] = molecular target: T2, NOX2 (Homo sapiens, UniProt P04839); test: PMA-induced superoxide anion luminescence assay, PMNs
NOX1 = NOX1 (Homo sapiens, UniProt Q9Y5S8); test: PMA-induced superoxide anion luminescence assay, HEK293 NOX1 cells
NOX4 = molecular target: T3, NOX4 (Homo sapiens, UniProt Q9NPH5); test: Amplex Red extracellular H2O2 assay, HEK293 NOX4 cells
T3 sequence (Q9NPH5 1-578): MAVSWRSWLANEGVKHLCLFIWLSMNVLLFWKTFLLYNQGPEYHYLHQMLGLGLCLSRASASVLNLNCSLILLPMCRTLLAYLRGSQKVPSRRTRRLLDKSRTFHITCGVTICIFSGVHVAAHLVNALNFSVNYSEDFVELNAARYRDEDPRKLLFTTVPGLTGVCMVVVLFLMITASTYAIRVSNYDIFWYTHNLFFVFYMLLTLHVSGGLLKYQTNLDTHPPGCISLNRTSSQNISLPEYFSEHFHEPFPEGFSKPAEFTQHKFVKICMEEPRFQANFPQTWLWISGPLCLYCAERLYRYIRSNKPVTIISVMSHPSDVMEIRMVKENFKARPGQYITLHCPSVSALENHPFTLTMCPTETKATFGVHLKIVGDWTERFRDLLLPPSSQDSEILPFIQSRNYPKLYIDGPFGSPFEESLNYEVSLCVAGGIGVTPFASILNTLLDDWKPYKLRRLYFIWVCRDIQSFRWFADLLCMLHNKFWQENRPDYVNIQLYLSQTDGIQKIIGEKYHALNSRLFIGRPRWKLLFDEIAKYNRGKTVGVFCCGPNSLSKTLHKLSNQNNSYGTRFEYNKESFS
T3 sequence (P13498 2-195 partner limits assumed): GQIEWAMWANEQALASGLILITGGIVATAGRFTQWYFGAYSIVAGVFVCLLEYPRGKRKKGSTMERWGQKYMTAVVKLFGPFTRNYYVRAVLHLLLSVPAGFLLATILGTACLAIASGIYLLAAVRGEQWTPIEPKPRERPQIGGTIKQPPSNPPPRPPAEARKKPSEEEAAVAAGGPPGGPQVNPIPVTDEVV

NOX2 [2] = molecular target: T2, NOX2; test: PMA-induced superoxide anion luminescence assay, differentiated HL-60 cells

O=[N+]([O-])c1ccc2c(c1)[I+]c1ccccc1-2.[Cl-] [compound 428, Dibenz[b,d]iodolium, 3-nitro-, chloride]
IC50 (NOX5): 35 ± 21 nM
IC50 (NOX2 [1]): 324 ± 144 nM
IC50 (NOX1): 136 ± 81 nM
IC50 (NOX4): 260 ± 254 nM
IC50 (NOX2 [2]): 57 ± 35 nM
fold more potent in HL-60 leukemia line compared to PMNs (NOX2 [2]): 2- to 5 fold

— paper PMC5610936 (Biochemical pharmacology, 2017)
